## Measured melting point values of organic chemicals

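OPERA's authors assembled the values from existing databases and did not measure them anew. The files give a single number for a compound and property, which may rest on several reports. Method and conditions are not stated for these values. The measured form (salt, isomer or mixture) is not always the one drawn. Some entries may be limits or estimates that an upstream database listed as plain numbers.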

The melting point is given in degrees Celsius. Cells with "–" have no entry in this list. The databases behind each value are named after "via".

compound	name	melting point (°C)	via
COc1cc(C=O)ccc1OCC(=O)O	(4-formyl-2-methoxyphenoxy)acetic acid	185	OCHEM
O=C(Nc1ccc(O)c(C(=O)O)c1)c1cc(Cl)cc(Cl)c1	5-(3,5-Dichlorobenzamido)-2-hydroxybenzoic acid	289	OCHEM
Cc1ccccc1C(=O)NC1CCNCC1	2-methyl-N-piperidin-4-ylbenzamide	130	OCHEM
CNCC(O)C(O)C(O)C(O)CO.CNCC(O)C(O)C(O)C(O)CO.O=C([O-])CN(CCN(CC(=O)[O-])CC(=O)[O-])CCN(CC(=O)[O-])C(COCc1ccccc1)C(=O)[O-].[Gd+3].[H+].[H+] (centres undefined)	Gadobenate dimeglumine	124	PubChem
CC(=O)c1ccc(OCC(=O)N2CCOCC2)cc1	Acetophenone, 4'-morpholinocarbonylmethoxy-	57	OCHEM
Cc1ccc(CC(=O)O)cc1C	2-(3,4-dimethylphenyl)acetic acid	97	OCHEM
COC(=O)CCN(CCC(=O)OC)c1ccc(N=Nc2c(Cl)cc([N+](=O)[O-])cc2Br)cc1	–	112	eChemPortal
COc1ccc(NC(=O)c2cc3ccccc3cc2O)cc1	2-Naphthalenecarboxamide, 3-hydroxy-N-(4-methoxyphenyl)-	233	eChemPortal
CCOc1ccccc1OCC(=O)O	(2-Ethoxy-phenoxy)-acetic acid	45	OCHEM
Cc1cc2c3ccccc3ccc2c2ccccc12	6-Methylchrysene	160	QSARDB
CCN(CC)S(=O)(=O)c1ccc(Cl)nc1	6-Chloro-N,N-diethylpyridine-3-sulfonamide	83	OCHEM
Nc1ccc2[nH]c(=O)[nH]c2c1	2H-Benzimidazol-2-one, 5-amino-1,3-dihydro-	207	OCHEM, eChemPortal
CC1=CCC(CC#N)C1(C)C (centres undefined)	3-Cyclopentene-1-acetonitrile, 2,2,3-trimethyl-	-33.5	eChemPortal
CCOC(=O)c1c(N)sc(C(=O)N(C)C)c1C	–	120	OCHEM
COc1ccc(-n2c(C)cc(C(=O)O)c2C)cc1	–	233	OCHEM
COCC(Br)C(=O)NCc1ccccc1 (centres undefined)	2-Bromo-3-methoxy-N-(phenylmethyl)propanamide	74	eChemPortal
O=[N+]([O-])c1sccc1Br	3-bromo-2-nitrothiophene	81	OCHEM
Clc1ccc(Oc2cc(Cl)c(Cl)c(Cl)c2Cl)c(Cl)c1	2,2',3,4,4',5-Hexachlorodiphenylether	79	QSARDB
Brc1ccc(Oc2ccccc2Br)cc1	1-Bromo-2-(4-bromophenoxy)benzene	20	OCHEM
Cc1ccc(S(=O)(=O)Nc2ccc(C)c(Nc3cc(S(=O)(=O)[O-])c(N)c4c3C(=O)c3ccccc3C4=O)c2)cc1.[Na+]	–	260	eChemPortal
Cc1ccc(-c2nn(-c3ccccc3)cc2C=O)o1	3-(5-Methylfuran-2-yl)-1-phenyl-1H-pyrazole-4-carbaldehyde	113	OCHEM
CC1CCc2sc(C(=O)O)cc2C1 (centres undefined)	–	134	OCHEM
CC(C)CCCC(C)CCCCCCCCCC(=O)OCC(C)(C)COC(=O)CCCCCCCCCC(C)CCCC(C)C (centres undefined)	–	-31.75	eChemPortal
Cc1ccc(-n2c(C)cc(CC(=O)O)c2C)cc1	1H-Pyrrole-3-acetic acid, 2,5-dimethyl-1-(4-methylphenyl)-	51	OCHEM
CC(C)CC(=O)CC(C)CC(C)C (centres undefined)	2,6,8-Trimethyl-4-nonanone	-75.2	OFMPub
CC(c1ccccc1)c1cc(C(=O)[O-])c(O)c(C(C)c2ccccc2)c1.CC(c1ccccc1)c1cc(C(=O)[O-])c(O)c(C(C)c2ccccc2)c1.[Zn+2] (centres undefined)	Zinc(2+) 3,5-bis(1-phenylethyl)salicylate	80	eChemPortal
Cc1ccc(Oc2ccc(NC(=O)CCl)cc2)cc1	2-chloro-N-[4-(4-methylphenoxy)phenyl]acetamide	156	OCHEM
O=S(=O)(O)c1cccc2c(S(=O)(=O)O)cccc12	1,5-Naphthalenedisulfonic acid	242.5	eChemPortal
Cc1ccc(Nc2cccc3c2C(=O)c2c(Nc4ccc(C)cc4)cccc2C3=O)cc1	–	216.9	eChemPortal
CCOc1ccc(C(=O)CCl)cc1	2-chloro-1-(4-ethoxyphenyl)ethanone	64	OCHEM
CCCCCCCCCCCCCOC(=O)CCCCC(=O)OCCCCCCCCCCCCC	Bis(tridecyl) adipate	-58	eChemPortal
Cc1cc(CCC(=O)OCCOCCOCCOC(=O)CCc2cc(C)c(O)c(C(C)(C)C)c2)cc(C(C)(C)C)c1O	–	78.4	eChemPortal
COC(=O)c1cc(CCl)nn1-c1ncccc1Cl	–	68.6	eChemPortal
O=C(O)CN1C(=O)NC2(CCCC2)C1=O	(2,4-Dioxo-1,3-diazaspiro[4.4]nonan-3-yl)acetic acid	166	OCHEM
CCOC(=O)CCn1c2c(c3ccccc31)C[C@H](N[C@@H](C)c1ccccc1)CC2	–	86	eChemPortal
Cc1cn2c(C=O)c(C)nc2s1	2,6-Dimethylimidazo[2,1-b][1,3]thiazole-5-carbaldehyde	154	OCHEM
O=C(O)c1cn[nH]c1-c1ccc(F)cc1	3-(4-fluorophenyl)-1H-pyrazole-4-carboxylic acid	303	OCHEM
CN(C)CC(=N)NO	(Dimethylamino)-N-hydroxyethanimidamide	136	OCHEM
C=C(C)C(=O)OCCCCCCCCCCCCCCCCCCCC	2-Propenoic acid, 2-methyl-, eicosyl ester	37.15	eChemPortal
N#CCC1C(=O)Nc2ccccc21 (centres undefined)	2,3-Dihydro-2-oxo-1H-indole-3-acetonitrile	162	OCHEM
O=S(=O)(Cl)c1ccc(S(=O)(=O)C(F)F)cc1	4-(Difluoromethanesulfonyl)benzene-1-sulfonyl chloride	140	OCHEM
O=S(=O)(Cl)c1ccc2c(c1)CCCC2	5,6,7,8-Tetrahydronaphthalene-2-sulfonyl chloride	45	OCHEM
Nc1ccnn1Cc1cccnc1	1-(pyridin-3-ylmethyl)-1H-pyrazol-5-amine	87	OCHEM
COc1ccc(N)cc1NC(=O)OC(C)(C)C	tert-Butyl (5-amino-2-methoxyphenyl)carbamate	109	OCHEM
Cc1[nH]c(=O)[nH]c1C	4,5-Dimethyl-1,3-dihydro-2H-imidazol-2-one	240	OCHEM
CCCCC(CC)COC(=O)C1CCC(C(=O)OCC(CC)CCCC)CC1 (centres undefined)	Bis(2-ethylhexyl) cyclohexane-1,4-dicarboxylate	-40.7	eChemPortal
Nc1cc(Cl)ccc1-n1cncn1	5-chloro-2-(1H-1,2,4-triazol-1-yl)aniline	95	OCHEM

The 7 lowest values of melting point among the entries above:

| compound | name | melting point (°C) | via |
|---|---|---|---|
| CC(C)CC(=O)CC(C)CC(C)C (centres undefined) | 2,6,8-Trimethyl-4-nonanone | -75.2 | OFMPub |
| CCCCCCCCCCCCCOC(=O)CCCCC(=O)OCCCCCCCCCCCCC | Bis(tridecyl) adipate | -58 | eChemPortal |
| CCCCC(CC)COC(=O)C1CCC(C(=O)OCC(CC)CCCC)CC1 (centres undefined) | Bis(2-ethylhexyl) cyclohexane-1,4-dicarboxylate | -40.7 | eChemPortal |
| CC1=CCC(CC#N)C1(C)C (centres undefined) | 3-Cyclopentene-1-acetonitrile, 2,2,3-trimethyl- | -33.5 | eChemPortal |
| CC(C)CCCC(C)CCCCCCCCCC(=O)OCC(C)(C)COC(=O)CCCCCCCCCC(C)CCCC(C)C (centres undefined) | – | -31.75 | eChemPortal |
| Brc1ccc(Oc2ccccc2Br)cc1 | 1-Bromo-2-(4-bromophenoxy)benzene | 20 | OCHEM |
| C=C(C)C(=O)OCCCCCCCCCCCCCCCCCCCC | 2-Propenoic acid, 2-methyl-, eicosyl ester | 37.15 | eChemPortal |

Values as listed in the OPERA 2.9 repository of K. Mansouri.